This passage reports Kd results from publication PMC5691035.

In this test the target is Pfs25, monomeric, Nicotiana benthamiana-produced (Plasmodium falciparum (NF54; identical in 3D7)) (UniProt P13829). Description: BLI.

For 1190 Fab, the Kd came to 0.0067 µM.
The same measure for 1276 Fab: 0.016 µM.

The Kd is the concentration at which binding is half-saturated. A low value points to tighter binding.
